What was measured:
SCCHN cell lines = experiment: Anti-proliferative activity on a panel of SCCHN cell lines (CellTiter-Glo); format: cell-based
Description: SCCHN cells were seeded in 96 well-plates at 3-5,000 cells/well in media containing reduced (1-3)% fetal bovine serum. […] Cells were treated with CellTiter-Glo® (Promega), and luminescence was measured in a BioTek plate reader. Normalized luminescence were plotted as a function of log-transformed drug concentration, and data were fit to a 4-parameter nonlinear regression algorithm using GraphPad Prism.

ERK pathway = experiment: Western blot, activation of ERK pathway; format: cell-based; conditions: drug-sensitive cells, absence of exogenous ligand
Description: (§1) Next, the interplay between ErbB activation and activation of ERK and AKT pathways was assessed by analyzing activation of ErbB, ERK, and AKT, respectively, in the absence of exogenous ligand (FIG. 4).

AKT pathway = experiment: Western blot, activation of AKT pathway; format: cell-based; conditions: drug-sensitive cells, absence of exogenous ligand
Description: as §1

cell surface ErbB3 = experiment: Cell surface ErbB3 after cetuximab treatment; format: cell-based; conditions: CAL27 and UNC7 SCCHN cell lines
[1] = system: CTG-0790 (patient-derived xenograft); experiment: Patient-derived xenograft tumor mouse model, tumor volume; format: in vivo; conditions: CTG-0790 PDX, 10 mg/kg (of each) intraperitoneally
Description: (§2) CTG-0790 cells were a primary patient-derived SCCHN tumor. Human FADU Head and Neck cells (ATCC No. HTB-43) were maintained at 37° C. in a 5% CO2 incubator in RPMI 1640 medium containing 4.5 g/L glucose, L-glutamine, sodium pyruvate and 10% fetal bovine serum. Xenografts were established by subcutaneously injecting 5×10^−6 cells per mouse (suspended in 50% matrigel) into the right flanks of 4- to 6-week-old athymic nu/nu mice. Tumors were allowed to grow up to 200 mm^3 before randomization for efficacy studies. […] Caliper measurements were used to calculate tumor volumes using the formula:
(§3) tumor volume=π÷6(length×width×width)
(§4) for tumors grown in mice. Antitumor effects are expressed as percent delta tumor growth inhibition (TGI), which was calculated as follows:
(§5) percent delta TGI=1−(dT÷dC)×100,
(§6) where dT=change in mean tumor volume in treatment group compared to the value at staging, and dC=change in mean tumor volume in control group compared to the value at staging.

[2] = system: FaDu (cell-line-derived xenograft); experiment: Cell-line-derived xenograft tumor mouse model, tumor volume; format: in vivo; conditions: FaDu CDX, 10 mg/kg (of each) intraperitoneally
Description: as §2, §3, §4, §5, §6

Substance: cetuximab: anti-EGFR monoclonal antibody [reference compound]
- cellular proliferation (SCCHN cell lines; certain SCCHN cell lines (FIGS. 3A-3E)): capable of impairing cellular proliferation
- cellular proliferation (SCCHN cell lines; other SCCHN cell lines (FIGS. 3F-3H) and a non-cancerous skin cell line): minimal impact
- activation of the ERK pathway (ERK pathway): inhibited activation
- activation of the AKT pathway (AKT pathway): not activation of the AKT pathway
- cell surface ErbB3 (cell surface ErbB3): upregulation
- tumor growth (tumor volume) [1]: delayed tumor growth
- tumor growth (tumor volume) [2]: delayed tumor growth

Source: patent publication US20180171027A1 (Celldex Therapeutics, Inc., priority 2015, published 2018)
